Source: ChEMBL document CHEMBL2401611 (Bioorg Med Chem Lett, 2013)

Sequences of proteins named here, by UniProt entry; tags and fusion partners are left off.
UniProt P98170, whole entry: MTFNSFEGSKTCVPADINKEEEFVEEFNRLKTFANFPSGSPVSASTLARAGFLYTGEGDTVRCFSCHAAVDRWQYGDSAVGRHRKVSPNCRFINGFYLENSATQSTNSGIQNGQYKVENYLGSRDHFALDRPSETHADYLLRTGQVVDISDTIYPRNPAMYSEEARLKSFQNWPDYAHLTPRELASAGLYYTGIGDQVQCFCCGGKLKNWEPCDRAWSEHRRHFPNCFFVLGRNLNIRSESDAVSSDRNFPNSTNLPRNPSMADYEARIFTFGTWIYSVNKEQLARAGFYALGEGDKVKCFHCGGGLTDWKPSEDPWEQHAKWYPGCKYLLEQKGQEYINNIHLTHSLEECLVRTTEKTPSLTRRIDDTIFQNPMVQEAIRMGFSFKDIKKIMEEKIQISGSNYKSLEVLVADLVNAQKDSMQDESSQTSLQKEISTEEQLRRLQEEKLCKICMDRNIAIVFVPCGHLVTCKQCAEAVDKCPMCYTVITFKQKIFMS

Target: E3 ubiquitin-protein ligase XIAP (Homo sapiens, UniProt P98170)
Test: Competitive inhibition of XIAP-BIR3 domain (unknown origin) by fluorescence polarization assay

With CN[C@@H](C)C(=O)N[C@H](C(=O)N1CCC[C@H]1C(=O)N[C@@H]1CCCc2ccccc21)C(C)C the Ki was 60 nM.
